Where two headings read alike, the source gives them in different places.
Key:
[1] = biological target: DEN3V NS2B-G4SG4NS3 serine protease (Dengue virus type 3, UniProt Q6YMS4); experiment: DEN3V protease inhibition assay
[2] = biological target: DEN1V NS2B-G4SG4NS3 serine protease (Dengue virus type 1, UniProt P17763); experiment: DEN1V protease inhibition assay
[3] = biological target: DEN4V NS2B-G4SG4NS3 serine protease (Dengue virus type 4, UniProt P09866); experiment: DEN4V protease inhibition assay
[4] = biological target: DEN2V NS2B-G4SG4-NS3 serine protease (Dengue virus type 2, UniProt Q91H74); experiment: DEN2V protease inhibition assay
[5] = read-out: Dengue 3 - NS3 protease
[6] = read-out: Dengue 1 - NS3 protease
[7] = read-out: Dengue 4 - NS3 protease
[8] = read-out: Dengue 2 - NS3 protease

O=C([N-]c1c[n+](C[C@H]2CC[C@H](NCC(F)(F)F)CC2)no1)Nc1cc(N2CC[C@H](c3ccccc3)C2=O)cc(C(F)(F)F)c1 [Example 144, ((3-((R)-2-Oxo-3-phenylpyrrolidin-1-yl)-5-(trifluoromethyl)phenyl)carbamoyl)(3-(((1r,4r)-4-((2,2,2-trifluoroethyl)amino)cyclohexyl)-methyl)-1,2,3-oxadiazol-3-ium-5-yl)amide]
IC50 [1]: 0.1 to 1 µM | IC50 [2]: > 20 µM | IC50 [3]: 0.1 to 1 µM | IC50 [4]: < 0.1 µM

COc1ncc(-c2ccc(C[n+]3cc([N-]C(=O)Nc4cc(N)cc(C(F)(F)F)c4)on3)cc2)c(C)n1 [Example 3, ((3-Amino-5-(trifluoromethyl)phenyl)carbamoyl)(3-(4-(2-methoxy-4-methylpyrimidin-5-yl)benzyl)-1,2,3-oxadiazol-3-ium-5-yl)amide]
IC50 [1]: 1 to 20 µM | IC50 [2]: > 20 µM | IC50 [3]: 1 to 20 µM | IC50 [4]: 1 to 20 µM

N[C@H]1CC[C@H]([n+]2cc([N-]C(=O)Nc3cc(NC(=O)Cc4ccccc4)cc(C(F)(F)F)c3)on2)CC1 [Example 92, (3-((1R,4R)-4-Aminocyclohexyl)-1,2,3-oxadiazol-3-ium-5-yl)((3-(2-phenylacetamido)-5-(trifluoromethyl)phenyl)carbamoyl)amide]
IC50 [1]: 0.1 to 1 µM | IC50 [2]: 1 to 20 µM | IC50 [3]: 1 to 20 µM | IC50 [4]: < 0.1 µM

O=C(Cc1ccccc1)Nc1cc(NC(=O)[N-]c2c[n+](Cc3ccc(CO)cc3)no2)cc(C(F)(F)F)c1 [Example 102, (3-(4-(Hydroxymethyl)benzyl)-1,2,3-oxadiazol-3-ium-5-yl)((3-(2-phenylacetamido)-5-(trifluoromethyl)phenyl)carbamoyl)amide]
IC50 [1]: < 0.1 µM | IC50 [2]: 1 to 20 µM | IC50 [3]: 0.1 to 1 µM | IC50 [4]: < 0.1 µM

CN1CCC(C[n+]2cc([N-]C(=O)Nc3cc(NC(=O)Cc4ccccc4)cc(C(F)(F)F)c3)on2)CC1 [Example 106, (3-((1-Methylpiperidin-4-yl)methyl)-1,2,3-oxadiazol-3-ium-5-yl)((3-(2-phenylacetamido)-5-(trifluoromethyl)phenyl)carbamoyl)amide]
IC50 [1]: 0.1 to 1 µM | IC50 [2]: 1 to 20 µM | IC50 [3]: 1 to 20 µM | IC50 [4]: < 0.1 µM

O=C(Cc1c[nH]c2cccnc12)Nc1cc(NC(=O)[N-]c2c[n+](Cc3ccccn3)no2)cc(C(F)(F)F)c1 [Example 36]
IC50 [1, 5]: < 0.1 µM | IC50 [2, 6]: 1 to 20 µM | IC50 [3, 7]: 0.1 to 1 µM | IC50 [4, 8]: < 0.1 µM

O=C([N-]c1c[n+](C[C@H]2CC[C@@H](CNCC(F)(F)F)CC2)no1)Nc1cc(N2CCC(c3ccccc3)C2=O)cc(C(F)(F)F)c1 (stereo partly drawn) [Example 139, ((3-(2-Oxo-3-phenylpyrrolidin-1-yl)-5-(trifluoromethyl)phenyl)carbamoyl)(3-(((1s,4s)-4-(((2,2,2-trifluoroethyl)amino)methyl)cyclohexyl)-methyl)-1,2,3-oxadiazol-3-ium-5-yl)amide]
IC50 [1]: 0.1 to 1 µM | IC50 [2]: > 20 µM | IC50 [3]: 1 to 20 µM | IC50 [4]: < 0.1 µM

COc1ncc(-c2ccc(C[n+]3cc([N-]C(=O)Nc4cc(NC(=O)CC5CCCCC5)cc(C(F)(F)F)c4)on3)cc2)c(C)n1 [Example 8]
IC50 [1, 5]: 0.1 to 1 µM | IC50 [2, 6]: > 20 µM | IC50 [3, 7]: 0.1 to 1 µM | IC50 [4, 8]: < 0.1 µM

CN(C)C[C@H]1CC[C@H]([n+]2cc([N-]C(=O)Nc3cc(NC(=O)Cc4ccccc4)cc(C(F)(F)F)c3)on2)CC1 [Example 147, (3-((1R,4R)-4-((Dimethylamino)methyl)-cyclohexyl)-1,2,3-oxadiazol-3-ium-5-yl)((3-(2-phenylacetamido)-5-(trifluoromethyl)phenyl)-carbamoyl)amide]
IC50 ([1]; read-out: Dengue 3 - NS3 protease, Table 5, letter codes for IC50): 0.1 to 1 µM | IC50 ([2]; read-out: Dengue 1 - NS3 protease, Table 5, letter codes for IC50): 1 to 20 µM | IC50 ([3]; read-out: Dengue 4 - NS3 protease, Table 5, letter codes for IC50): 0.1 to 1 µM | IC50 ([4]; read-out: Dengue 2 - NS3 protease, Table 5, letter codes for IC50): < 0.1 µM

COc1ncc(-c2ccc(C[n+]3cc([N-]C(=O)Nc4cc(NS(=O)(=O)Cc5ccccc5)cc(C(F)(F)F)c4)on3)cc2)c(C)n1 [Example 10, (3-(4-(2-Methoxy-4-methylpyrimidin-5-yl)benzyl)-1,2,3-oxadiazol-3-ium-5-yl)((3-((phenylmethyl)sulfonamido)-5-(trifluoromethyl)phenyl)carbamoyl)amide]
IC50 [1]: 0.1 to 1 µM | IC50 [3]: 0.1 to 1 µM | IC50 [4]: < 0.1 µM

O=C(Cc1ccccc1)Nc1cc(NC(=O)[N-]c2c[n+](CC3CCCNC3)no2)cc(C(F)(F)F)c1 (stereo not drawn) [Example 110, ((3-(2-Phenylacetamido)-5-(trifluoromethyl)phenyl)carbamoyl)(3-(piperidin-3-ylmethyl)-1,2,3-oxadiazol-3-ium-5-yl)amide]
IC50 [2]: 1 to 20 µM | IC50 [4]: < 0.1 µM

NCc1ccccc1-c1ccc(C[n+]2cc([N-]C(=O)Nc3cc(NC(=O)Cc4ccccc4)cc(C(F)(F)F)c3)on2)nc1 [Example 5, (3-((5-(2-(Aminomethyl)phenyl)pyridin-2-yl)methyl)-1,2,3-oxadiazol-3-ium-5-yl)((3-(2-phenylacetamido)-5-(trifluoromethyl)phenyl)carbamoyl)amide]
IC50 [2]: 1 to 20 µM | IC50 [4]: < 0.1 µM

CC(C(=O)Nc1cc(NC(=O)[N-]c2c[n+](Cc3ccccn3)no2)cc(C(F)(F)F)c1)c1ccccc1 (stereo not drawn) [Example 32]
IC50 [2, 6]: 1 to 20 µM | IC50 [4, 8]: < 0.1 µM

O=C([N-]c1c[n+](Cc2ccccn2)no1)Nc1cc(N2CC(c3ccccc3)CC2=O)cc(C(F)(F)F)c1 (stereo not drawn) [Example 122, ((3-(2-Oxo-4-phenylpyrrolidin-1-yl)-5-(trifluoromethyl)phenyl)carbamoyl)(3-(pyridin-2-ylmethyl)-1,2,3-oxadiazol-3-ium-5-yl)amide]
IC50 [1]: 1 to 20 µM | IC50 [4]: 0.1 to 1 µM

O=C([N-]c1c[n+](Cc2ccccn2)no1)Nc1cc(NC(=O)c2cc3n(n2)CCS(=O)(=O)C3)cc(C(F)(F)F)c1 [Example 64]
IC50 [4, 8]: 1 to 20 µM

O=C([N-]c1c[n+](Cc2ccccn2)no1)Nc1cc(NC(=O)C23CCC(O)(CC2)C3)cc(C(F)(F)F)c1 [Example 66]
IC50 [4, 8]: 1 to 20 µM

O=C([N-]c1c[n+](Cc2ccccn2)no1)Nc1cc(NC(=O)c2ccc(CN3CCOCC3)o2)cc(C(F)(F)F)c1 [Example 30]
IC50 [4, 8]: 1 to 20 µM

O=C(CC1(N2CCCC2)COC1)Nc1cc(NC(=O)[N-]c2c[n+](Cc3ccccn3)no2)cc(C(F)(F)F)c1 [Example 86, (3-(Pyridin-2-ylmethyl)-1,2,3-oxadiazol-3-ium-5-yl)((3-(2-(3-(pyrrolidin-1-yl)oxetan-3-yl)acetamido)-5-(trifluoromethyl)phenyl)carbamoyl)amide]
IC50 [4]: 0.1 to 1 µM

O=C(Cc1ccc(=O)[nH]c1)Nc1cc(NC(=O)[N-]c2c[n+](Cc3ccccn3)no2)cc(C(F)(F)F)c1 [Example 123, ((3-(2-(6-Oxo-1,6-dihydropyridin-3-yl)acetamido)-5-(trifluoromethyl)phenyl)-carbamoyl)(3-(pyridin-2-ylmethyl)-1,2,3-oxadiazol-3-ium-5-yl)amide]
IC50 [4]: 1 to 20 µM

NC[C@H]1CC[C@@H](C[n+]2cc([N-]C(=O)Nc3cc(N4CCC(c5ccccc5)C4=O)cc(C(F)(F)F)c3)on2)CC1 (stereo partly drawn) [Example 133, (3-(((1S,4S)-4-(Aminomethyl)cyclohexyl)-methyl)-1,2,3-oxadiazol-3-ium-5-yl)((3-(2-oxo-3-phenylpyrrolidin-1-yl)-5-(trifluoromethyl)-phenyl)carbamoyl)amide]
IC50 [4]: < 0.1 µM

O=C(Cc1ccccc1)Nc1cc(NC(=O)[N-]c2c[n+](CC3CCN(CCO)CC3)no2)cc(C(F)(F)F)c1 [Example 141, (3-((1-(2-Hydroxyethyl)piperidin-4-yl)methyl)-1,2,3-oxadiazol-3-ium-5-yl)((3-(2-phenylacetamido)-5-(trifluoromethyl)phenyl)-carbamoyl)amide]
IC50 [4]: < 0.1 µM

O=C([N-]c1c[n+](Cc2ccccn2)no1)Nc1cc(NC(=O)c2ccc3c(n2)CCO3)cc(C(F)(F)F)c1 [Example 79]
IC50 [4, 8]: 1 to 20 µM

Cn1ccc(CC(=O)Nc2cc(NC(=O)[N-]c3c[n+](Cc4ccccn4)no3)cc(C(F)(F)F)c2)n1 [Example 40]
IC50 [4, 8]: 0.1 to 1 µM

CC(C)n1ccc(C(=O)Nc2cc(NC(=O)[N-]c3c[n+](Cc4ccccn4)no3)cc(C(F)(F)F)c2)n1 [Example 48]
IC50 [4, 8]: 1 to 20 µM

O=C([N-]c1c[n+](C[C@H]2CC[C@@H](NCC(F)(F)F)CC2)no1)Nc1cc(N2CCC(c3ccccc3)C2=O)cc(C(F)(F)F)c1 (stereo partly drawn) [Example 136, ((3-(2-Oxo-3-phenylpyrrolidin-1-yl)-5-(trifluoromethyl)phenyl)carbamoyl)(3-(((1s,4s)-4-((2,2,2-trifluoroethyl)amino)cyclohexyl)methyl)-1,2,3-oxadiazol-3-ium-5-yl)amide]
IC50 [4]: < 0.1 µM

O=C(CS(=O)(=O)c1ccccc1)Nc1cc(NC(=O)[N-]c2c[n+](Cc3ccccn3)no2)cc(C(F)(F)F)c1 [Example 43]
IC50 [4, 8]: 0.1 to 1 µM

Cc1oc(-c2ccccc2)nc1CC(=O)Nc1cc(NC(=O)[N-]c2c[n+](Cc3ccccn3)no2)cc(C(F)(F)F)c1 [Example 33]
IC50 [4, 8]: > 20 µM

N[C@H]1CC[C@@H](C[n+]2cc([N-]C(=O)Nc3cc(N4CCC(c5ccccc5)C4=O)cc(C(F)(F)F)c3)on2)CC1 (stereo partly drawn) [Example 131, (3-(((1S,4S)-4-Aminocyclohexyl)methyl)-1,2,3-oxadiazol-3-ium-5-yl)((3-(2-oxo-3-phenylpyrrolidin-1-yl)-5-(trifluoromethyl)-phenyl)carbamoyl)amide]
IC50 [4]: < 0.1 µM

CCOC(=O)CN1CCC(C[n+]2cc([N-]C(=O)Nc3cc(NC(=O)Cc4ccccc4)cc(C(F)(F)F)c3)on2)CC1 [Example 140, (3-((1-(2-Ethoxy-2-oxoethyl)piperidin-4-yl)methyl)-1,2,3-oxadiazol-3-ium-5-yl)((3-(2-phenylacetamido)-5-(trifluoromethyl)phenyl)-carbamoyl)amide]
IC50 [4]: < 0.1 µM

COc1ncc(-c2ccc(C[n+]3cc([N-]C(=O)Nc4cc(NC(=O)Cc5ccc(CN)cc5)cc(C(F)(F)F)c4)on3)cc2)c(C)n1 [Example 22]
IC50 [4, 8]: 0.1 to 1 µM

— patent publication EP4563146A1 (IRBM S.P.A., priority 2023, dated 2025)
